{"source": "patent US20240067693A1", "about": "“POLYPEPTIDES AND USES THEREOF” (MEDIMMUNE LIMITED, priority 2020, published 2024)", "key": {"lean rats": {"tested_on": "lean rats", "assay": "Rat acute food intake study", "type": "in vivo", "conditions": "lean male Sprague Dawley rats, 60 nmol/kg peptide 1 (pramlintide) subcutaneously", "procedure": "Male Sprague Dawley rats were obtained from Taconic Denmark, ApS at approximately 7 weeks of age. Rats were implanted with a microchip for identification, housed 4/cage with enrichment, free access to food and water, and allowed one week acclimatisation while non-invasive characterization was performed. Rats were on a 12:12 light:dark cycle that switches at 1pm:1am. Food intake was monitored via the HM2 system (Lafayette Instrument) that allows for monitoring in a home cage. As each rat enters an access tunnel to feed, an IR beam is broken, and the implanted microchip is read. Resulting changes to food weight is then assigned to the specific animal. Social order has shown no impact to overall feeding patterns and amounts.\nRats were sorted into groups based on Day -1 body weight and 24-hour accumulated food intake (n=7 per group). On Day 0 rats were weighed, then fasted for 6 hours. Thirty (30) minutes prior to the reintroduction of food, rats were dosed subcutaneously (5 mL/kg) with 20 nmol/kg of test compound or 60 nmol/kg peptide 1 (pramlintide) diluted in an appropriate vehicle, after which food was returned, and lights went out. Automated food intake was monitored for the following 3 days, and rats were weighed once per day.\nFood intake per rat was batched into 1-hour intervals and integrated into Gubra's GubraView data management system. Discrete food intake data was exported into MS Excel from which cumulative food intake data was generated. Cumulative food intake data was then transposed into GraphPad Prism (v8.0.1) for analysis of dark period feeding"}, "[1]": {"target": "T1, rat calcitonin receptor (rat CTR) (Rattus norvegicus, UniProt P32214)", "T1 construct": "expressed in transfected cells", "T1 sequence (P32214 25-516)": "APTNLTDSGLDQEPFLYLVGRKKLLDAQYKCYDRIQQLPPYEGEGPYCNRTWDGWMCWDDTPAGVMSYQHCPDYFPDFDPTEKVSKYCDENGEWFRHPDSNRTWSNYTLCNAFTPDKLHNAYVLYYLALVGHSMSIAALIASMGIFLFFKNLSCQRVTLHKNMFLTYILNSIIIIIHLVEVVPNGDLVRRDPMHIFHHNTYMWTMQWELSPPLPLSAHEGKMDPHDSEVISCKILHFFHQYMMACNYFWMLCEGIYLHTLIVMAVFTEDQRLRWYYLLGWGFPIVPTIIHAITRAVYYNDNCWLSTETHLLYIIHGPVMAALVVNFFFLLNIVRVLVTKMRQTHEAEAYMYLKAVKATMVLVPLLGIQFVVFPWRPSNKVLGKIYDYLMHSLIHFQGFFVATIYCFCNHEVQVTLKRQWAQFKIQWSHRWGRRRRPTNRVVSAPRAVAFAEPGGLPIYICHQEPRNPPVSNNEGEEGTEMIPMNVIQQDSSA", "assay": "cAMP production in HEK cells with stable recombinant expression of rat calcitonin receptor (rat CTR)", "type": "cell-based", "conditions": "assay buffer with 0.1% BSA", "procedure": "(§1) The functional activities of lipidated pramlintide analogue peptides, such as cAMP production, were tested in 1321N1 cell line with stable recombinant expression of human calcitonin receptor (hCTR) or human amylin receptor (calcitonin receptor co-expressed with receptor activity modifying protein, RAMP3) (hAMYR3) or HEK cells with stable recombinant expression of rat calcitonin receptor (rat CTR) or rat amylin receptor (calcitonin receptor co-expressed with receptor activity modifying protein, RAMP3) (Rat AMYR3). […]\n(§2) The test peptide stock was prepared in DMSO and diluted in assay buffer to reach stated concentrations and transferred in duplicates into a 384-black shallow well microtitre assay plate (Corning # 3676). Cells were added to the assay plate, incubated at room temperature for 30 minutes and the cAMP level measured using cAMP dynamic 2 HTRF kit (Cisbio, Cat # 62AM4PEJ), following the two step protocol as per manufacturer's recommendations. The plates were read on an Envision (Perkin Elmer) using excitation wavelength of 320 nm and emission wavelengths of 620nm & 665 nm.\n(§3) Data was transformed to % Delta F as described in the manufacturer's guidelines and analyzed as percent activation of maximal amylin or calcitonin effect by 4-parameter logistic fit to determine EC50 values. […]"}, "[2]": {"target": "T2, human amylin receptor (calcitonin receptor co-expressed with receptor activity modifying protein, RAMP3) (hAMYR3) (Homo sapiens, UniProt O60896+P30988)", "T2 construct": "expressed in transfected cells", "T2 sequence (P30988 25-474)": "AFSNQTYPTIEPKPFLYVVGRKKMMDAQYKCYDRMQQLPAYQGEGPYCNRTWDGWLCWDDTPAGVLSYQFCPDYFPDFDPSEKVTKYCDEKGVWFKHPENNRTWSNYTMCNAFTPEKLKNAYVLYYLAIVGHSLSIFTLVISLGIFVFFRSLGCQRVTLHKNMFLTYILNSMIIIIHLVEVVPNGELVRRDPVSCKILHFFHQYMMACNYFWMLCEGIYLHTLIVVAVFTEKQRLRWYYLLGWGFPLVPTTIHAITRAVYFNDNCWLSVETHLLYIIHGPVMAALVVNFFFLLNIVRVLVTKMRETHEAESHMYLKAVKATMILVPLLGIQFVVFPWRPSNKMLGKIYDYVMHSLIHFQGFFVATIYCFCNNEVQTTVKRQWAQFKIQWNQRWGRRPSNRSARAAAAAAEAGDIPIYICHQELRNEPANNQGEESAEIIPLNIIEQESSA", "T2 sequence (O60896 24-148 partner)": "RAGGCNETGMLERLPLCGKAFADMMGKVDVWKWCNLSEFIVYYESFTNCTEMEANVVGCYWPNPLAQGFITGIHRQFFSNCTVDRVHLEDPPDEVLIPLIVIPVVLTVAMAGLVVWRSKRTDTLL", "assay": "cAMP production in 1321N1 cells with stable recombinant expression of human amylin receptor (hAMYR3)", "type": "cell-based", "procedure": "The functional activities of lipidated pramlintide analogue peptides, such as cAMP production, were tested in 1321N1 cell line with stable recombinant expression of human calcitonin receptor (hCTR) or human amylin receptor (calcitonin receptor co-expressed with receptor activity modifying protein, RAMP3) (hAMYR3) or HEK cells with stable recombinant expression of rat calcitonin receptor (rat CTR) or rat amylin receptor (calcitonin receptor co-expressed with receptor activity modifying protein, RAMP3) (Rat AMYR3).\nCryopreserved cell stock was thawed rapidly in a water-bath, suspended in assay buffer (0.1% BSA (Sigma # A3059) in HBSS (Sigma # H8264) with 25 mM HEPES, pH 7.4 and containing 0.5 mM IB MX (Sigma# 17018)) and spun at 240×g for 5 minutes. Cells were re-suspended in assay buffer at a batch-dependent optimized concentration (e.g. hCTR cells at 0.125×10^5 cells/mL, hAMYR3 cells at 0.125×10^5 cells/mL, rat CTR cells at 1x10^5 cells/mL, rat AMYR3 at 2×10^5 cells/mL).\nas §2\nData was transformed to % Delta F as described in the manufacturer's guidelines and analyzed as percent activation of maximal amylin or calcitonin effect by 4-parameter logistic fit to determine EC50 values. The selectivity of a peptide to hAMYR vs hCTR is defined as a ratio of EC50 values at the two receptors."}, "[3]": {"target": "T3, human calcitonin receptor (hCTR) (Homo sapiens, UniProt P30988)", "T3 construct": "expressed in transfected cells", "T3 sequence (P30988 25-474)": "T2 sequence (P30988 25-474)", "assay": "cAMP production in 1321N1 cells with stable recombinant expression of human calcitonin receptor (hCTR)", "type": "cell-based", "conditions": "assay buffer with 0.1% BSA", "procedure": "as §1, §2, §3"}, "[4]": {"conditions": "Roth et al. Br J Pharmacol 2012; cited from earlier work"}}}
{"molecule": "CC[C@H](C)[C@H](NC(=O)[C@@H]1CCCN1C(=O)CNC(=O)[C@H](Cc1ccccc1)NC(=O)[C@H](CC(N)=O)NC(=O)[C@H](CC(N)=O)NC(=O)[C@H](CO)NC(=O)[C@H](CO)NC(=O)[C@H](Cc1c[nH]cn1)NC(=O)[C@@H](NC(=O)[C@H](CC(C)C)NC(=O)[C@H](Cc1ccccc1)NC(=O)[C@H](CC(N)=O)NC(=O)[C@H](C)NC(=O)[C@H](CC(C)C)NC(=O)[C@H](CCCNC(=N)N)NC(=O)[C@H](CCC(N)=O)NC(=O)[C@@H](NC(=O)[C@H](C)NC(=O)[C@@H]1CSSC[C@H](NC(=O)[C@@H](N)CCCCN)C(=O)N[C@@H](CC(N)=O)C(=O)N[C@@H]([C@@H](C)O)C(=O)N[C@@H](C)C(=O)N[C@@H]([C@@H](C)O)C(=O)N1)[C@@H](C)O)C(C)C)C(=O)N[C@@H](CC(C)C)C(=O)N1CCC[C@H]1C(=O)N1CCC[C@H]1C(=O)N[C@H](C(=O)N[C@@H](CC(N)=O)C(=O)N[C@H](C(=O)NCC(=O)N[C@@H](CO)C(=O)N[C@@H](CC(N)=O)C(=O)N[C@H](C(=O)N[C@@H](Cc1ccc(O)cc1)C(N)=O)[C@@H](C)O)C(C)C)[C@@H](C)O", "note": "[Peptide 1, reference compound]", "values": [{"measurement": "Cummulative food intake (% vehicle treated intake) At 12 h", "setting": "lean rats; at 12 h", "result": 71.6, "unit": "% vehicle treated intake"}, {"measurement": "Cummulative food intake (% vehicle treated intake) At 24 h", "setting": "lean rats; at 24 h", "result": 85.6, "unit": "% vehicle treated intake"}, {"measurement": "Cummulative food intake (% vehicle treated intake) At 48 h", "setting": "lean rats; at 48 h", "result": 98.7, "unit": "% vehicle treated intake"}, {"measurement": "EC50", "setting": "[1]", "result": 70, "unit": "pM"}, {"measurement": "Ratio (selectivity hAMYR vs hCTR, ratio of EC50 values at the two receptors)", "setting": "[2]; EC50 hCTR / EC50 hAMYR3", "result": 16}, {"measurement": "EC50", "setting": "[2]; cAMP, 1321N1 cells, assay buffer with 0.1% BSA", "result": 10, "unit": "pM"}, {"measurement": "selectivity to hAMYR as compared to hCTR", "setting": "[2]; measured using cAMP release from binding to hAMYR and hCTR", "result": "at least 10 fold"}, {"measurement": "EC50", "setting": "[3]", "result": 160, "unit": "pM"}, {"measurement": "half-life in human", "setting": "[4]", "result": "20 to 45", "unit": "min"}]}
